Source: paper PMC3539767 (Bioorganic & medicinal chemistry letters, 2012)

Amino acid sequences for entries named in this document (tags omitted). Residues count along the entry.
UniProt P31424, 21-1203: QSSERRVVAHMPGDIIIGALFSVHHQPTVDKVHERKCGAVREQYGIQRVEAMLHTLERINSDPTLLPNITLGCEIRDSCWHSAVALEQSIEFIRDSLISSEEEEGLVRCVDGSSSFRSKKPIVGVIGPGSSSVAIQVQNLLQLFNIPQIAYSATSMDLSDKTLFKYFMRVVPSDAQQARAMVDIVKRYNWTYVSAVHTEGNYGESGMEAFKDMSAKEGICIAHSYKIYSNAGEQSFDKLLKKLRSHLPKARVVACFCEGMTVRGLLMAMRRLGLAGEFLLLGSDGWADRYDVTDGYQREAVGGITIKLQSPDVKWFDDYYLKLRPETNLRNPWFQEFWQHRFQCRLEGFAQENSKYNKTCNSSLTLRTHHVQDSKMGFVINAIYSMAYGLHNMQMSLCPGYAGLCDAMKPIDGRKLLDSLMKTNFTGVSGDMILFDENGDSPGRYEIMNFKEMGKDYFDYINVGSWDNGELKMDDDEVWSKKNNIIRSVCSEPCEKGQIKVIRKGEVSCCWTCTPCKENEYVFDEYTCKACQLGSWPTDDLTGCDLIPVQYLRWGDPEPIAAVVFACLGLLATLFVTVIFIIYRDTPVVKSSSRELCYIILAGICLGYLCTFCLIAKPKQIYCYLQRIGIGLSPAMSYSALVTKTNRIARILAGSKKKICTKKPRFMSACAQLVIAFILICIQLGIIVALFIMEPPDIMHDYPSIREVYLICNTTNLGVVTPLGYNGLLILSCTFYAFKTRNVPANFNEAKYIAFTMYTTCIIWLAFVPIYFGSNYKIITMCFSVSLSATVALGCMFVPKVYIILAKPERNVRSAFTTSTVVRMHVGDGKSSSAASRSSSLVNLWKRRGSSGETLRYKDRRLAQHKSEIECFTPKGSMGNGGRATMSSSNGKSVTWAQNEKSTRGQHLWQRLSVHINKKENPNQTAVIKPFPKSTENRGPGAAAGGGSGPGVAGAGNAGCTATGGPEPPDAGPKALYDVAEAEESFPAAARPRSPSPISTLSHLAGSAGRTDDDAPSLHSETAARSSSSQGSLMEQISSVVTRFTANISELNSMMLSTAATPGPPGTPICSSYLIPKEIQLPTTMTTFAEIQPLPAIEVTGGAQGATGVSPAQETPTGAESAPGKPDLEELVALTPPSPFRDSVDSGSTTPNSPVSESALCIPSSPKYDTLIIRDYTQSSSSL

Key:
rat mGlu5 = rat mGlu5 (Rattus norvegicus, UniProt P31424); assay: calcium mobilization PAM assay, high-expressing rat mGlu5 HTS cell line; format: cell-based; conditions: value for 15a estimated because of agonist activity

| Structure (SMILES) | fold shift (rat mGlu5) | selectivity versus the other mGlus (mGlu1–4,6–8) |
| --- | --- | --- |
| CS(=O)(=O)N(CC(=O)Nc1ccccc1)c1ccccc1Cl [15a] | ~ 1.2 fold |  |
| CS(=O)(=O)N(CC(=O)NCC1CC1)c1cc(C(F)(F)F)ccc1Cl [compound 24] |  | highly selective |
